Earlier results on one substance are cited in patent US20260207540A1 (priority 2020, published 2026).

For the data set the following is noted: 2.4 mg/mL, asthmatics.

As for “disodium ethylenediamine tetraacetate [disodium edetate]”, the “drop in FEV1, on average” value was 20%.
